## Apparent affinities of Ab-14 variants for a coronavirus HR2 peptide

Target: peptide PDVDLGDISGINAS, taken from heptad repeat 2 (HR2) of SARS-CoV-2 spike.

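The starting antibody came from a phage panning campaign against this peptide. In library AAYL50, one, two or three CDR residues were substituted; doubles and triples were drawn at random. The assay is AlphaSeq: two haploid yeast populations carry antibody and antigen on their surface. The frequency of each diploid, read from paired DNA barcodes, reflects how well the two displayed proteins bind. Read counts were normalised to the haploid input and turned into Kd by a linear fit to BCL2-family pairs of known affinity, for each replicate. There are three technical replicates.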

The variants keep the heavy chain, the linker and the frameworks of Ab-14 (scFv order VH, a 15-residue (Gly4Ser)3 linker, VL).
VH: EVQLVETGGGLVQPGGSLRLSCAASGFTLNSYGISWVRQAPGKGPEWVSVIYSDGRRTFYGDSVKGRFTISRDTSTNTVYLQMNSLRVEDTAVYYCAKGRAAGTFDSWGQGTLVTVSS
VL: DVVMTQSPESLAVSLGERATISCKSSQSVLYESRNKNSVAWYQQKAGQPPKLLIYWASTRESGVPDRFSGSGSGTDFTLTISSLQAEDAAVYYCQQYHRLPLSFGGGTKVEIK

Variants are written as CDR1, CDR2 and CDR3 of the light chain (limits as in the source). Parent: KSSQSVLYESRNKNSVA, WASTRES, QQYHRLPLS. Every variant below is changed at S26 of the VL (sequential numbering). Values are apparent Kd, the geometric mean of the replicates that gave a signal; lower means stronger binding. An entry "nd" has no value in the source: the pair was not observed among the diploids in any replicate. This suggests poor binding but is not conclusive. As a blank, each scFv also met three strains without target: over library AAYL50, 18% of these pairings were detected, typically at 15 µM and seldom below 970 nM. The control count says in how many pairings with the empty strains this scFv gave a signal.

Variant KMIQSVLYEGRNKNSVA / WASTRES / QQYHRLPLS showed 4.5 nM (3 of 3 replicates; controls 3 of 9). For CSCQSVLYESRNKNSAA / WASTRES / QQYHRLPLS, the assay gave nd (0 of 3 replicates; controls 1 of 9). For KSYQCVLYESRNKNSVA / WASTRES / QQYSRLPLS, the assay gave 4.5 µM (3 of 3 replicates; controls 1 of 9). Variant KSHQSVLYESRNKNSVA / WHSTRES / QQYHRIPLS showed nd (0 of 3 replicates; controls 0 of 9). For KSEQSVLYESVNKNSVA / WASTRES / RQYHRLPLS, the assay gave nd (0 of 3 replicates; controls 1 of 9). With KSPQSVLYESRNKNEVA / WASTRCS / QQYHRLPLS the result was nd (0 of 3 replicates; controls 0 of 9). Variant KSWQSVLYESRNKSSVA / WASTRES / QQYHRLPLS gave 470 nM (3 of 3 replicates; controls 7 of 9). With KSNQSVLYESRNKNRVV / WASTRES / QQYHRLPLS the result was 1.7 mM (1 of 3 replicates; controls 0 of 9). With KSFQSVLYEKRNKNSVA / WASTDES / QQYHRLPLS the result was 60 µM (2 of 3 replicates; controls 6 of 9).

Variant KSFQSVLYESRNKNSVA / WASTRES / QQYHRLCLS showed 420 µM (2 of 3 replicates; controls 3 of 9). With KSDQSVLYESRNKNIVA / WASTRES / QQYHRLPLC the result was nd (0 of 3 replicates; controls 1 of 9). For KSTQHVLYESRNKNSVA / WASTRES / QQYHRLPES, the assay gave 13 µM (1 of 3 replicates; controls 2 of 9). With KLQQSVLYESRNKNSVA / WASTRES / QQYHRLPFS the result was 2.3 nM (3 of 3 replicates; controls 0 of 9). Variant KSCQSVLYESRNKNSVA / WASTRES / QQYHRLPLS showed 38 nM (3 of 3 replicates; controls 1 of 9). Variant KSMQSDLYESRNKGSVA / WASTRES / QQYHRLPLS showed 45 nM (3 of 3 replicates; controls 2 of 9). For KSKQSVNYERRNKNSVA / WASTRES / QQYHRLPLS, the assay gave 34 nM (3 of 3 replicates; controls 0 of 9). Variant KSLQSVLYEERNKNSVA / WASTRES / QQYPRLPLS showed nd (0 of 3 replicates; controls 0 of 9). Variant KSPQSLLYESRNKNSGA / WASTRES / QQYHRLPLS gave 37 nM (3 of 3 replicates; controls 1 of 9).

For KSKQSNLYESRNKNSVA / WAPTRES / QQYHRLPLS, the assay gave 2.6 µM (1 of 3 replicates; controls 2 of 9). With KSKPSVLYESRNKESVA / WASTRES / QQYHRLPLS the result was 640 nM (2 of 3 replicates; controls 1 of 9). Variant KSGQKVLYESRNKNSVA / WASTRES / QQYHRLTLS showed 50 nM (3 of 3 replicates; controls 2 of 9). Variant KSQQSVLYESRNKNSVA / FWSTRES / QQYHRLPLS gave 17 µM (3 of 3 replicates; controls 4 of 9). Variant KSKQSVLYESRNKNSVA / WASTRYS / QQYHGLPLS showed 5.6 µM (3 of 3 replicates; controls 3 of 9). For KSCQQVLYESRNKNSVA / WASTCES / QQYHRLPLS, the assay gave nd (0 of 3 replicates; controls 0 of 9). For FSCQSVLYESRNKNSVA / WASTRES / QQYHRLPLS, the assay gave 1.9 µM (3 of 3 replicates; controls 1 of 9). For KSQQSVLYETRNKNSVA / WASTRES / QQYHPLPLS, the assay gave nd (0 of 3 replicates; controls 0 of 9). For KSRQSVLYESRNKNSVA / WASTREF / GQYHRLPLS, the assay gave 900 nM (3 of 3 replicates; controls 2 of 9).

For KSFQSVGYESRNKNSVA / WASTRES / QQYHRGPLS, the assay gave nd (0 of 3 replicates; controls 1 of 9). Variant KSVQSVLYESRNMNSVA / WASTRED / QQYHRLPLS gave 6.6 nM (3 of 3 replicates; controls 0 of 9). Variant KSEQSVLYESRNKNSVA / DASTRES / PQYHRLPLS showed 3.7 µM (1 of 3 replicates; controls 2 of 9). With KSWQSVHYESCNKNSVA / WASTRES / QQYHRLPLS the result was 910 nM (3 of 3 replicates; controls 0 of 9). With KSHQSVLYESRNKNSVA / IASTRES / QQYHGLPLS the result was nd (0 of 3 replicates; controls 0 of 9). With KSEQSVLYESRNKNSVA / WASTRES / QQYHRLPLS the result was 18 nM (3 of 3 replicates; controls 1 of 9).

The first 2 variants above that were never detected:

CDR-L1,CDR-L2,CDR-L3,Kd,replicates with signal,control signals
CSCQSVLYESRNKNSAA,WASTRES,QQYHRLPLS,nd,0 of 3,1 of 9
KSHQSVLYESRNKNSVA,WHSTRES,QQYHRIPLS,nd,0 of 3,0 of 9

Parent in this assay: reference entry 4.4 nM, copy in this library 48 nM.

Reference: Engelhart et al. 2022, doi:10.1038/s41597-022-01779-4. File: FLAb, binding data.